The list shows a part of the results, in another mix than the full data. Calls of active or inactive are those of the source.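 How the source made its calls: active means inhibition above the batch mean plus 3 SD and confirmed as a hit by visual image inspection (cut at about 30% in these data, passing the limit was not always enough); inconclusive means above the inhibition threshold but rejected on visual inspection; inactive means the rest.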

Among the data in PubChem BioAssay AID836 (Columbia University Molecular Screening Center, 2007) are inhibition values, retold here.

This assay can be described thus: modifiers of F-actin cytoskeleton organization, primary screen, imaging, HUVEC, phalloidin staining, high-content imaging (AID 836). As to conditions: HUVEC TNFa F-actin phalloidin imaging, at 2 µM, hits give high values.
The inhibition is the drop in the measured response relative to a control, in per cent. In the case of `CC1CCN(C(=O)Oc2c(Cl)cc(Cl)c3cccnc23)CC1`, the inhibition is inactive: 14.9%.
Under `CC(=O)N1C2C3N(C(C)=O)C1C1N(C(C)=O)C(C(N1C(C)=O)N3C(C)=O)N2C(C)=O` stands inactive: -5%.
In the case of `O=[N+]([O-])c1cccc2n[nH]nc12` it was inactive: 3.4%; in that of `CCc1nc2c(n1)c1c(non1O)c1c2no[n+]1[O-]`, inactive: -2.8%; in that of `CC(C)CC(=O)NC(Sc1ccc(Cl)cc1)C(Cl)(Cl)Cl` (configuration not stated), inactive: 10.8%.
For `Oc1ccccc1CNc1ccccn1`, the inhibition was inactive: -0.5%.
Under `Cc1c2non([O-])c-2c(C)[n+](=O)[n+]1[O-]` stands inactive: -1.2%; under `CN1CCCC(OC(=O)C(c2ccccc2)c2ccccc2)C1` (configuration not stated), inactive: 6%.
Turning to `CCOP(=O)(Nc1ccccc1)OCC`, the inhibition is inactive: 10.4%.
In the case of `CCC(=O)N1C2C3N(C(=O)CC)C1C1N(C(=O)CC)C(C(N1C(=O)CC)N3C(=O)CC)N2C(=O)CC` it was inactive: -15.1%; in that of `CCOC(=O)NC(Sc1ccccc1)C(Cl)(Cl)Cl` (configuration not stated), inactive: 12.1%.
Under `O=P1(Nc2nc3ccc(Cl)cc3s2)COc2ccccc2O1` (configuration not stated) stands inactive: -28.3%.
As to `c1nnnn1CCn1cnnn1`, the inhibition was inactive: 7.7%.
Under `O=P(Nc1nccs1)(c1ccccc1)c1ccccc1` stands inactive: 29.1%; under `O=C(OC1CN2CCC1CC2)c1cccc(Cl)c1` (configuration not stated), inactive: -7.7%.
Take `Cc1ccc(OCC(=O)OC2CN3CCC2CC3)cc1` (configuration not stated): the inhibition is inactive: 12.9%.
Under `O=P1(Nc2ccc(Br)cn2)COc2ccccc2OC1` stands inactive: 30.5%.
Under `O=P1(Nc2ncccn2)COc2ccccc2OC1` stands inactive: 8.1%; under `Cc1nn(-c2ccccc2)c2c1P(=O)(N1CCOCC1)N(C)C(c1ccccc1)=N2` (configuration not stated), inactive: 1.5%.
In the case of `CC1(CBr)Cn2c(nc3ccccc3c2=O)S1` (configuration not stated) it was inactive: 14.8%; in that of `Clc1n[nH]nc1-c1nn[nH][15n]1`, inactive: 9.6%.
As for `O=P1(Nc2ccccn2)COc2ccccc2OC1`, the inhibition was inactive: -56.7%.
In the case of `Cc1cccc(OCC(=O)OC2CN3CCC2CC3)c1` (configuration not stated) it was inactive: -9.8%; in that of `O=[N+]([O-])c1ccc2c(c1)nnn2O`, inactive: -19.2%.
Under `CCOP1(=S)c2c(C)nn(CCC#N)c2N=C(c2ccc(F)cc2)N1C` (configuration not stated) stands inactive: 3.8%; under `CCOP1(=S)c2c(C)nn(CCC#N)c2N=C(c2ccccc2F)N1C` (configuration not stated), inactive: -23.3%.
Consider `CCN(CC)C(=S)SC(NC=O)C(Cl)(Cl)Cl` (configuration not stated), for which the inhibition is inactive: 14.6%.
`ClCCSc1nnc(-c2cccnc2)o1`: the inhibition is inactive: -20.1%.
In the case of `O=C(OC1CN2CCC1CC2)C12CC3CC(CC(C3)C1)C2` (configuration not stated) it was inactive: 23.6%.
For `CCC(C)N(CC(C)C)C(=S)SC(NC(C)=O)C(Cl)(Cl)Cl` (configuration not stated), the inhibition was inactive: -20.2%.
For the compound `O=C(COc1ccccc1)OC1CN2CCC1CC2` (configuration not stated), the inhibition was inactive: 0.3%.
Under `COP1(=S)c2c(C)nn(CCC#N)c2N=C(c2ccc(F)cc2)N1C` (configuration not stated) stands inactive: -11.7%.
